Chains of the proteins cited; added tags and fusions are not shown.
UniProt Q3I1M7, entry or part of it: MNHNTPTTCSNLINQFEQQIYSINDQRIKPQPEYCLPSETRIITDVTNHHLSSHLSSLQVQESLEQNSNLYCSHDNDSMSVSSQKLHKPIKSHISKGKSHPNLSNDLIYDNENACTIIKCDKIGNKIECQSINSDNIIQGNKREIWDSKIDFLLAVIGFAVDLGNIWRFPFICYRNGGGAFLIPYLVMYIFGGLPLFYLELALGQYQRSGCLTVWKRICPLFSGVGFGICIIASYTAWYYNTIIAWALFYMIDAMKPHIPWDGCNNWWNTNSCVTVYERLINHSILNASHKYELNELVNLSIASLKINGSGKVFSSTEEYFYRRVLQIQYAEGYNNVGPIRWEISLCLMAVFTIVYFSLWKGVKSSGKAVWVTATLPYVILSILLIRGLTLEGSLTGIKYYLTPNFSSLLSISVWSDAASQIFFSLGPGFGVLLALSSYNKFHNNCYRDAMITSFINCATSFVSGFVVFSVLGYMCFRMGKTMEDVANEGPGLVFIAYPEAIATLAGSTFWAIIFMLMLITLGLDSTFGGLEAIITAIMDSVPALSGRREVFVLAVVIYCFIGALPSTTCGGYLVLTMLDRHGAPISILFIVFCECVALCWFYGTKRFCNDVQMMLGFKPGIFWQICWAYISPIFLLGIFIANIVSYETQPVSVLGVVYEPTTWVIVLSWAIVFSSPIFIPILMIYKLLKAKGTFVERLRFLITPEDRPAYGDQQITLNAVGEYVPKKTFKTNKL

According to patent US9616065B2, “Compositions useful in treating brain-related diseases or disorders and methods using same” (priority 2013, dated 2017):

molecular target: SmSERT (Schistosoma mansoni, UniProt Q3I1M7); assay: Transport inhibition constants, SmSERT; assay type: cell-based

Row | Structure (SMILES) | Ki [nM]
1 | CN(C)CCCC1(c2ccc(F)cc2)OCc2cc(C#N)ccc21 (stereo not drawn) [Citalopram] | 250 ± 100
2 | CN(C)CCCN1c2ccccc2CCc2ccc(Cl)cc21 [Clomipramine] | 200 ± 100
3 | Fc1ccc([C@@H]2CCNC[C@H]2COc2ccc3c(c2)OCO3)cc1 [Paroxetine] | 100 ± 100
